Experimental findings from PMC8390410 are described below.

The target in the assay is Netrin-1ΔC (Netrin-1 from Gallus gallus lacking the C-terminal domain) (Gallus gallus) (UniProt Q90922). In words: SEC-MALS; 5 mg/mL Netrin-1 in 50 mM Tris pH 7.5, 200 mM NaCl; 300 uL on Superose 6 Increase 10/300 at 0.3 mL/min; Wyatt Dawn Heleos II; monomer-dimer equilibrium. (In general: In gel filtration, larger molecules generally elute earlier.)

A word on the stoichiometry N: it is a count of units in the complex or per binding partner.

As to “Netrin-1ΔC (Netrin-1 from Gallus gallus lacking the C-terminal domain) (from UniProt Q90922 26-458) (domain or fragment)”, the stoichiometry N was found to be 2.
